The nature of series [1]: Selectivity index, ratio of GI50 for human HCT116 cells to MIC90 for Mycobacterium tuberculosis H37Ra ATCC 25177 dormant stage. Conditions: read-out: Selectivity Index. Format: toxicity, cell-based, HCT-116. A digest of the protocol:
(§1)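 Cytotoxicity was measured on human MCF-7, HCT116 and THP-1 cells by MTT assay, with paclitaxel as reference. GI50 is the concentration inhibiting 50% of cell growth. The selectivity index is GI50 for the given cell line divided by MIC90 for the given mycobacterial strain and stage.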

Series [2] in a line: Selectivity index, ratio of GI50 for human MCF7 cells to MIC90 for Mycobacterium tuberculosis H37Ra ATCC 25177 dormant stage. It counts as toxicity, cell-based. As to conditions: read-out: Selectivity Index. In outline:
as §1

In the case of `CO[C@H]1/C=C/O[C@@]2(C)Oc3c(C)c(O)c4c(O)c(c(/C=N/N5CCN(C)CC5)c(O)c4c3C2=O)NC(=O)/C(C)=C\C=C\[C@H](C)[C@H](O)[C@@H](C)[C@@H](O)[C@@H](C)[C@H](OC(C)=O)[C@@H]1C` [RIFAMPIN], the selectivity ratio in series [1] and in series [2] was 133 throughout.

These data come from ChEMBL document CHEMBL3872252, “New bithiazolyl hydrazones: Novel synthesis, characterization and antitubercular evaluation” (Bioorg Med Chem Lett, 2017).
